Results: patent US20250388575A1, “HETEROBIFUNCTIONAL COMPOUNDS AND METHODS OF TREATING DISEASE” (Halda Therapeutics OpCo, Inc., priority 2022, published 2025)

Amino acid sequences for entries named in this document (tags omitted). Residues count along the entry.
UniProt P06401, 679-913 limits assumed: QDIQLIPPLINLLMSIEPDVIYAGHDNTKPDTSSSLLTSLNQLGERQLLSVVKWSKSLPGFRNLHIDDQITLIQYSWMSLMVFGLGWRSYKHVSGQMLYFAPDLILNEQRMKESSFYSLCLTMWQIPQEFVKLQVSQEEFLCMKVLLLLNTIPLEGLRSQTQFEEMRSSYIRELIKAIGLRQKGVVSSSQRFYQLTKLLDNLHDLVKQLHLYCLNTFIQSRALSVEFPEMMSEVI

Assays:
[1] = test system: T-Rex 293 cell line SC3 cells lacking increased expression of androgen receptor protein; test: Cellular growth inhibition, T-Rex 293 SC3 cells lacking increased androgen receptor expression (no doxycycline), CellTiter-Glo; conditions: T-Rex 293 SC3 cells lacking increased androgen receptor expression (not exposed to doxycycline), 72 hours
Experimental: (§1) The following types of cells were prepared for this experiment: (i) a T-Rex 293 cell line having increased expression of androgen receptor protein due to exposure to doxycycline and (ii) a T-Rex 293 cell line lacking increased expression of androgen receptor protein. Ability of the test compounds to inhibit proliferation of the foregoing cell types was evaluated according to the procedures set forth below.
(§2) The doxycycline-inducible androgen receptor protein expressing cell line was established using the following protocol: T-Rex 293 cells were purchased from Invitrogen (Cat #R71007) and transfected using Lipofectamine 2000 with the wild-type androgen receptor protein sequence cloned into the pcDNA4/TO vector. Transfected cells were selected using 400 μg/mL Zeocin (Invitrogen Cat #R25001). Following selection, single clones were raised and maintained in Dulbecco's Modified Eagle Medium (DMEM) supplemented with 10% w/w Tetracycline-free fetal bovine serum (FBS) and 250 μg/mL Zeocin. Clones were analyzed for expression of androgen receptor protein in the presence and absence of 10 ng/ml doxycycline (Sigma Cat #D9891), and a single doxycycline-inducible clone (hereinafter “SC3”) was selected for use in downstream assays.
(§3) The SC3 cells were seeded on poly-D-lysine coated, black clear-bottom 384-well plates at 2500/well, in 25 μL Phenol Red Free Dulbecco's Modified Eagle Medium (DMEM) supplemented with 10% w/w charcoal-dextran treated fetal bovine serum (FBS) and 1% w/w pen-strep, with or without 10 ng/mL doxycycline. Pen-Strep is a commercially available mixture of penicillin G and streptomycin, which is used in mammalian cell culture media to prevent bacterial contamination. Phenol Red Free Dulbecco's Modified Eagle Medium (DMEM) supplemented with 10% w/w charcoal-dextran treated fetal bovine serum (FBS) and 1% w/w pen-strep, with or without 10 ng/mL doxycycline is herein referred to as Treatment Medium. Following seeding of cells in the plates, the plates were spun at 300×g for 30 seconds, then equilibrated to room temperature for 30 minutes, and then deposited in a humidified tissue culture incubator maintained at 37° C. with 5% CO2.
(§4) At 24 hours after seeding of the cells, dilutions of test compound were prepared in DMSO and dissolved in Treatment Medium, to achieve a final DMSO concentration of 0.5% w/w, thereby providing the Test Compound Solution. A 25 μL aliquot of the Test Compound Solution was added to cells in the well plates. An equal volume of a solution containing DMSO and Treatment Medium was used as a negative control. Following treatment of cells with Test Compound Solution or said equal volume of a solution containing DMSO and Treatment Medium, the plates were spun at 300×g for 30 seconds, and then left in an incubator for 72 hours.
(§5) At the end of the treatment duration, cell viability was quantified with CellTiter-Glo 2.0 reagent (Promega Cat #G9243). For this purpose, plates were equilibrated to room temperature for 30 minutes, and then 25 μL of CellTiter-Glo 2.0 reagent was added to cells in the plate wells. Plates were then agitated on a shaker for two minutes at 500 rpm and subsequently incubated at room temperature for 10 minutes. Following incubation, the plates were spun at 3000×g for 30 seconds, then sealed with an optical adhesive cover, and luminescence readings were measured with an EnVision Plate Reader.
(§6) Data was normalized using zero luminescence for baseline. […]

BRD4-BD1 = BRD4-BD1 (Homo sapiens (Human), UniProt O60885); test: bromoKdELECT assay for binding affinity to BRD4-BD1; conditions: 11-point 3-fold dilution
Experimental: (§7) Compounds were tested using a bromoKdELECT assay. T7 phage strains displaying bromodomains were grown in parallel in 24-well blocks in an E. coli host derived from the BL21 strain. E. coli were grown to log-phase and infected with T7 phage from a frozen stock (multiplicity of infection=0.4) and incubated with shaking at 32° C. until lysis (90-150 minutes). The lysates were centrifuged (5,000×g) and filtered (0.2 μm) to remove cell debris. Streptavidin-coated magnetic beads were treated with biotinylated small molecule or acetylated peptide ligands for 30 minutes at room temperature to generate affinity resins for bromodomain assays. The liganded beads were blocked with excess biotin and washed with blocking buffer (SeaBlock (Pierce), 1% BSA, 0.05% Tween 20, 1 mM DTT) to remove unbound ligand and to reduce nonspecific phage binding. Binding reactions were assembled by combining bromodomains, liganded affinity beads, and test compounds in 1× binding buffer (17% SeaBlock, 0.33×PBS, 0.04% Tween 20, 0.02% BSA, 0.004% Sodium azide, 7.4 mM DTT). Test compounds were prepared as 1000× stocks in 100% DMSO. Kds were determined using an 11-point 3-fold compound dilution series with one DMSO control point. All compounds for Kd measurements are distributed by acoustic transfer (non-contact dispensing) in 100% DMSO. The compounds were then diluted directly into the assays such that the final concentration of DMSO was 0.09%. All reactions performed in polypropylene 384-well plates. Each was a final volume of 0.02 ml. The assay plates were incubated at room temperature with shaking for 1 hour and the affinity beads were washed with wash buffer (1×PBS, 0.05% Tween 20). The beads were then resuspended in elution buffer (1×PBS, 0.05% Tween 20, 2 μM non-biotinylated affinity ligand) and incubated at room temperature with shaking for 30 minutes. The bromodomain concentration in the eluates was measured by qPCR.

BRD4-BD2 = BRD4-BD2 (Homo sapiens (Human), UniProt O60885); test: bromoKdELECT assay for binding affinity to BRD4-BD2; conditions: 11-point 3-fold dilution
Experimental: as §7

[2] = test system: T-Rex 293 cell line SC3 cells having increased expression of androgen receptor protein; test: Cellular growth inhibition, T-Rex 293 SC3 cells with increased androgen receptor expression (doxycycline), CellTiter-Glo; conditions: T-Rex 293 SC3 cells with increased androgen receptor expression (exposed to 10 ng/mL doxycycline), 72 hours
Experimental: as §1, §2, §3, §4, §5, §6

VCaP cells = test: Cellular growth inhibition assay for VCaP cells, CellTiter-Glo; conditions: 72 hours
Experimental: VCaP cells were purchased from American Type Cell Culture (ATCC Cat #CRL2876) and then seeded on poly-D-lysine coated, black clear-bottom 384-well plates at 5000/well in 25 μL Dulbecco's Modified Eagle Medium (DMEM) supplemented with 10% w/w Fetal bovine serum (FBS) and 1% w/w Pen-Strep. Pen-Strep is a commercially available mixture of penicillin G and streptomycin, which is used in mammalian cell culture media to prevent bacterial contamination. Dulbecco's Modified Eagle Medium (DMEM) supplemented with 10% w/w fetal bovine serum (FBS) and 1% w/w Pen-Strep is herein referred to as Treatment Medium. Following seeding of cells in the plates, the plates were spun at 300×g for 30 seconds, then equilibrated to room temperature for 30 minutes, and then deposited in a humidified tissue culture incubator maintained at 37° C. with 5% CO2.
as §4, §5
Data was normalized using zero luminescence for baseline. A four-parameter non-linear regression curve fit was applied to dose-response data in GraphPad Prism data analysis software to determine the half-maximal growth inhibitory concentration (GI50) for each test compound.

T47D cells = test: Cellular growth inhibition assay for T47D cells, CellTiter-Glo; conditions: 72 hours treatment, CellTiter-Glo 2.0
Experimental: T47D cells were purchased from American Type Cell Culture (ATCC Cat #HTB-133) and then seeded on poly-D-lysine coated, black clear-bottom 384-well plates at 3000/well in 25 μL Dulbecco's Modified Eagle Medium (DMEM) supplemented with 10% w/w Fetal bovine serum (FBS), 0.2 units/mL recombinant human insulin (Gibco Cat #12585014), and 1% w/w Pen-Strep. Pen-Strep is a commercially available mixture of penicillin G and streptomycin, which is used in mammalian cell culture media to prevent bacterial contamination. Dulbecco's Modified Eagle Medium (DMEM) supplemented with 10% w/w fetal bovine serum (FBS), 0.2 units/mL recombinant human insulin, and 1% w/w Pen-Strep is herein referred to as Treatment Medium. Following seeding of cells in the plates, the plates were spun at 300×g for 30 seconds, then equilibrated to room temperature for 30 minutes, and then deposited in a humidified tissue culture incubator maintained at 37° C. with 5% CO2. […]
At the end of the treatment duration, cell viability was quantified with CellTiter-Glo 2.0 reagent (Promega Cat #G9243). […] Following incubation, the plates were spun at 3000×g for 30 seconds, then sealed with an optical adhesive cover, and luminescence readings were measured with an EnVision Plate Reader (Perkin Elmer).
as §6

[3] = biological target: progesterone receptor ligand binding domain (LBD) (Homo sapiens (Human), UniProt P06401); test: FP assay for binding affinity to progesterone receptor (PolarScreen Progesterone Receptor Competitor Assay); conditions: GST-tagged PR LBD, Fluormone tracer, fluorescence polarization, 2 hours at room temperature
Experimental: Compounds were tested using the PolarScreen™ Progesterone Receptor Competitor Assay Kit (Life Technologies Cat #A15905 or a15906), as per the manufacturer's instructions. Briefly, GST-tagged PR LBD, Fluormone tracer, and compound were mixed and incubated for 2 hours at room temperature in the dark. Following incubation, the plates were spun at 3000×g for 30 seconds, then sealed with an optical adhesive cover, and fluorescence polarization was measured using appropriate excitation and emission filters with an EnVision Plate Reader (Perkin Elmer). Compound concentration vs. mP value were plotted in Prism (GraphPad). A four-parameter non-linear regression curve fit was applied to dose-response data to determine the half-maximal inhibitory concentration (IC50) for each test compound.

Row | Kd (BRD4-BD1) | Kd (BRD4-BD2) | GI50 (VCaP cells) | GI50 (T47D cells) | IC50 [3] | Compound | GI50 [1] | GI50 [2]
1 | 50 to 500 nM | 50 to 500 nM | < 500 nM | – | – | CCS(=O)(=O)Nc1ccc(Oc2ccc(CCCOC3CCN(c4ccc(C(=O)N[C@H]5CC[C@H](Oc6ccc(C#N)c(Cl)c6)CC5)nn4)CC3)cc2)c(-c2cn(C)c(=O)c3[nH]ccc23)c1 | < 500 nM | < 500 nM
2 | 50 to 500 nM | 50 to 500 nM | < 500 nM | – | – | CCS(=O)(=O)Nc1ccc(Oc2ccc(OCC3CCN(c4ccc(C(=O)N[C@H]5CC[C@H](Oc6ccc(C#N)c(Cl)c6)CC5)nn4)CC3)cc2)c(-c2cn(C)c(=O)c3[nH]ccc23)c1 | 1500 to 3000 nM | < 500 nM
3 | 50 to 500 nM | 50 to 500 nM | < 500 nM | – | – | CCS(=O)(=O)Nc1ccc(OCC(OCCOC2CCN(c3ccc(C(=O)N[C@H]4CC[C@H](Oc5ccc(C#N)c(Cl)c5)CC4)nn3)CC2)C2CC2)c(-c2cn(C)c(=O)c3[nH]ccc23)c1 (stereo partly shown) | > 3000 nM | < 500 nM

Further lines, the compound ahead of its results:

Row | Compound | Kd (BRD4-BD1) | Kd (BRD4-BD2) | GI50 (VCaP cells) | GI50 (T47D cells) | IC50 [3] | GI50 [1] | GI50 [2]
4 | Cn1cc(-c2cc(C(C)(C)O)ccc2Oc2ccc(CCOC3CCN(c4ccc(C(=O)N[C@H]5CC[C@H](Oc6ccc(C#N)c(Cl)c6)CC5)nn4)CC3)c(F)c2F)c2cc[nH]c2c1=O | 500 to 2500 nM | 500 to 2500 nM | < 500 nM | < 500 nM | 50 to 500 nM | < 500 nM | < 500 nM
5 | Cn1cc(-c2cc(C(C)(C)O)ccc2Oc2ccc(CCC3CCN(c4ccc(C(=O)N[C@H]5CC[C@H](Oc6ccc(C#N)c(Cl)c6)CC5)nn4)CC3)nc2)c2cc[nH]c2c1=O | 50 to 500 nM | 50 to 500 nM | < 500 nM | < 500 nM | – | 500 to 1500 nM | < 500 nM
